From ChEMBL document CHEMBL1139871, “Selective urokinase-type plasminogen activator inhibitors. 4. 1-(7-sulfonamidoisoquinolinyl)guanidines” (J Med Chem, 2007)

Molecular target: Urokinase-type plasminogen activator (Homo sapiens, UniProt P00749)

| SMILES | Ki |
| --- | --- |
| CN(CC(=O)O)S(=O)(=O)c1ccc2c(Cl)cnc(N=C(N)N)c2c1 | 0.054 µM |
| NC(N)=Nc1nccc2ccc(S(=O)(=O)Nc3ccccc3)cc12 | 0.16 µM |
| NC(N)=Nc1ncc(Cl)c2ccc(S(=O)(=O)N3CCCC3)cc12 | 0.13 µM |
| CN(C1(C(=O)O)CCCC1)S(=O)(=O)c1ccc2c(Cl)cnc(N=C(N)N)c2c1 | 0.011 µM |
